By UniProt entry, the sequences of proteins in these tests, tags left out. Residues count along the entry.
UniProt P08648, 42-1049, chain 1 of 2: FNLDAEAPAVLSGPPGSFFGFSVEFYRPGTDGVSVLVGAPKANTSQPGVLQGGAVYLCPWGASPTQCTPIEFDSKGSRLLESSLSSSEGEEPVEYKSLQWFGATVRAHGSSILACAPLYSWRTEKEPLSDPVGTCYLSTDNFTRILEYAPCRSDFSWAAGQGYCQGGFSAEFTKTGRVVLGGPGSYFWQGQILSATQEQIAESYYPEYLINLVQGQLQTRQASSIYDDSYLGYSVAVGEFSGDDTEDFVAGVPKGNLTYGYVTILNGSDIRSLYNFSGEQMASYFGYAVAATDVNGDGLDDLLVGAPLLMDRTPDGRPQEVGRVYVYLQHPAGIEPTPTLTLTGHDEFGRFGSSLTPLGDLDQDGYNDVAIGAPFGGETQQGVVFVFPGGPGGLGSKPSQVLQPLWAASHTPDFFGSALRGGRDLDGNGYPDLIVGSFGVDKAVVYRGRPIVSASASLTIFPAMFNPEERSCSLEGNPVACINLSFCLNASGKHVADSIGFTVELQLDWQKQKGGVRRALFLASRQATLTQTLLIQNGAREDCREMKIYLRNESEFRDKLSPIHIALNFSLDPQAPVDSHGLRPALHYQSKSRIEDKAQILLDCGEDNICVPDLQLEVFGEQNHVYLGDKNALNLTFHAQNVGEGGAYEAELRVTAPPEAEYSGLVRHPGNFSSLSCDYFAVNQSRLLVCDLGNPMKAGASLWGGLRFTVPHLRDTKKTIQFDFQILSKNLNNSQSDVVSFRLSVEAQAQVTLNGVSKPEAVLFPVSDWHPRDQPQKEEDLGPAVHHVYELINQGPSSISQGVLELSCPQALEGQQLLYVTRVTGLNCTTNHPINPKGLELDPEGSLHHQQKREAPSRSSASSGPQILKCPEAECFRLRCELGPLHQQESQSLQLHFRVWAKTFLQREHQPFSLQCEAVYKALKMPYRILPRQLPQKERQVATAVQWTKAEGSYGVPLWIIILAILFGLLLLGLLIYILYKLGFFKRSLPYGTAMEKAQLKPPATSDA

In PMC5748972 (The Journal of Cell Biology, 2018):

Biological target: intact integrin α5β1 on the surface of KA4 cells (human (endogenous in K562)) (UniProt P08648)
Assay: flow cytometry on cells

Kd: 1200 nM
Substance: fibronectin Fn3 domains 9 and 10 (domain or fragment)
